Experiment [1] has as its target T1, human APLP2 extracellular domain expressed with a C-terminal myc-myc-hexahistidine tag (human, UniProt Q06481 32-692).
T1 construct: also called hAPLP2-MMH; APLP2.mmh
The experiment in a line: SPR, antibody captured, hAPLP2-MMH injected, 25 C. (Surface plasmon resonance follows binding to a sensor surface in real time, without labels.)

Protein sequences, listed by entry. Tags and fused reporters are not part of them. Chains listed by the source or under a name are the forms on record and can include a tag or linker.
UniProt Q06481, other isoform, or with tags, fused parts or gaps: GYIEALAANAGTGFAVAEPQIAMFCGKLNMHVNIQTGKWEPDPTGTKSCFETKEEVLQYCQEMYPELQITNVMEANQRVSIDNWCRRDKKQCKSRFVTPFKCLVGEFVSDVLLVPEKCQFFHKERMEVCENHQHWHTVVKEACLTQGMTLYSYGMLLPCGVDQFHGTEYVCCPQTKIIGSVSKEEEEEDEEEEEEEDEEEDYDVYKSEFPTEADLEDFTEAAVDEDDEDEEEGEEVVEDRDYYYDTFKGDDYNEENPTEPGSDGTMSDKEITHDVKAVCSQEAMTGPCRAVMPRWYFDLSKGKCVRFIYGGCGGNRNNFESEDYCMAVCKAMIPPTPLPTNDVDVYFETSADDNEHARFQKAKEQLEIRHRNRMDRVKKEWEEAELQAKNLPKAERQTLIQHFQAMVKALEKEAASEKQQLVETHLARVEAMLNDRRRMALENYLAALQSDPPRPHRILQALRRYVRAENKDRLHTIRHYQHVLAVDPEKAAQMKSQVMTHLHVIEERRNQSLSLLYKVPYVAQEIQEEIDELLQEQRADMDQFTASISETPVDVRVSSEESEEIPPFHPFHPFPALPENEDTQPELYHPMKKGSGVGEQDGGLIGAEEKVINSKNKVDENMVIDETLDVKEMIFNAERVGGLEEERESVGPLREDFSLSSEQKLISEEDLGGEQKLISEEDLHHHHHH

Experiment [2] addresses T2, human HER2 extracellular domain expressed with a C-terminal myc-myc-hexahistidine tag (human, UniProt P04626 23-652).
T2 construct: also called hHER2-MMH; HER2.mmh
The experiment in a line: SPR (Biacore 4000), antibody captured on anti-human Fc, hHER2-MMH injected, 37 C. How it is done: (§1) Equilibrium dissociation constants (KD values) for HER2 and APLP2 binding to purified anti-HER2xAPLP2 bispecific and parental antibodies were determined using a real-time surface plasmon resonance biosensor using a Biacore 4000 instrument. The Biacore sensor surface was first derivatized by amine coupling with a monoclonal mouse anti-human Fc antibody (GE, Cat #BR-1008-39) to capture anti-HER2xAPLP2 bispecific monoclonal antibodies. […] Kinetic association rate constant (ka) and dissociation rate constant (kd) were determined by fitting the real-time sensorgrams to a 1:1 binding model using Scrubber 2.0c curve fitting software. Binding dissociation equilibrium constants (KD) and dissociative half-lives (t1/2) were calculated from the kinetic rate constants as: […]

The target of experiment [3] is T1, human APLP2 extracellular domain …. The experiment in a line: SPR (Biacore 4000), antibody captured on anti-human Fc, hAPLP2-MMH injected, 37 C. How it is done:
as §1

In experiment [4] the target is T3, human HER2 expressed on cells (cancer cell lines and normal primary cultures) (human, UniProt P04626 23-1255).
T3 construct: Endogenous HER2 of the cell lines; the same cells also express APLP2; also called human epidermal growth factor receptor 2
Put plainly: imaging, Alexa647-labelled antibody on MDA-MB-361 cells at 4 C; No Block. How it is done:
(§2) For the assay, cells were plated on collagen-coated, black wall, 96-well, optical plates (Greiner, Cat #655936) at 2.5×10⁵ cells per well in their appropriate culture media (described in previous examples), and incubated overnight at 37° C. in 5% CO₂. The next day, the cells were placed in refrigeration at 4° C. for 30 minutes. […] To each antibody solution, either PBS alone, human HER2 extracellular domain expressed with a C-terminal myc-myc-hexahistidine tag (hHER2-MMH; SEQ ID NO: 53) alone, human APLP2 extracellular domain expressed with a C-terminal myc-myc-hexahistidine tag (hAPLP2-MMH; SEQ ID NO: 54) alone, or the combination of hHER2-MMH and hAPLP2-MMH was added at a concentration of […]. After incubation, and removal of culture media, 50 μL/well of the bispecific antibody and soluble protein solutions were added to the cells for 30 minutes at 4° C. The cells were subsequently washed with 150 μL/well of DMEM containing 10% FBS at 4° C. for 10 minutes. […] The fixing buffer was then removed, 100 uL of DPBS/CM was added and allowed to incubate for approximately 20 minutes at room temperature prior to image acquisition. Binding of the bispecific antibodies to each of the cell types was measured using an Image Xpress^Micro automatic microscope (Molecular Devices). Data acquired was analyzed using MetaXpress software (Molecular Devices). […]

The target of experiment [5] is T3, human HER2 expressed on cells (cancer …). Put plainly: imaging, Alexa647-labelled antibody on MDA-MB-361 cells at 4 C; competitor hHER2-MMH. As to the method: as §2
For experiment [6] the target is unchanged. Put plainly: imaging, Alexa647-labelled antibody on MDA-MB-361 cells at 4 C; competitor hAPLP2-MMH. As to the method:
as §2

For experiment [7] the target is unchanged. The experiment in a line: imaging, Alexa647-labelled antibody on MDA-MB-361 cells at 4 C; competitors hHER2-MMH + hAPLP2-MMH. How it is done: as §2
The target of experiment [8] is T1, human APLP2 extracellular domain …. Put plainly: SPR, antibody captured, hAPLP2-MMH injected, 25 C (second row for this antibody).

B1: H4H25014D (bispecific antibody, IgG4, V domains shown)
VH 1: QVQLQESGPGLVKPSQTLSLTCTVSGGSISSGHYFWSWIRQHPGKGLEWIGYIFYSGSTHYNPSLKSRLSISVDTSKNQFSLRLTSVTAADTAVYYCAREEGDYNFWDVDYVPGHFDYWGQGTLVTVSS
VH 2: EVQLVESGGGLVQPGGSLRLSCAASGFTFSTYVMSWVRQAPGKGPEWVSGISGRTGTTYYADSVKGRFTISRDNSKNTLYLQMNSLRAEDTAVYYCASRITAAGRGYYYYYGMDVWGRGTTVTVSS
VL: not shown
notes: Wild-type kappa CL and a modified (chimeric) IgG4 CH domain as set forth in US20140243504A1; also called bispecific anti-HER2xAPLP2 antibody
Consider B1, for which the koff (as a rule, the rate constant with which the complex falls apart) in experiment [1] worked out at 0.000946 s⁻¹; in experiment [2], 0.000731 s⁻¹; in experiment [3] it was 0.0104 s⁻¹. Also, the kon (in general, a measure of how fast the partners come together) in experiment [1] was determined as 94800 M⁻¹ s⁻¹; in experiment [2], 217000 M⁻¹ s⁻¹; in experiment [3] it was 44400 M⁻¹ s⁻¹.

B2: H4H25020D (bispecific antibody, IgG4, V domains shown)
VH 1: B1 VH 1
VH 2: QVQLVQSGVEVKKPGASVKVSCKASGYTFTDYGISWVRQAPGQGLEWMGWISAHNGNTNYAQKLQGRVTMTTDTSTNTAYMELRSLRSDDTAVYYCARRNWKYFDYWGQGTLVTVSS
VL: not shown
notes: as for B1
Take B2: the “Bispecific antibody signal (Fold over blank)” value in experiment [4] came out at 15 fold over blank; in experiment [5], 6 fold over blank; in experiment [6], 16 fold over blank; in experiment [7], 7 fold over blank. Further, the koff in experiment [2] turned out to be 0.000919 s⁻¹; in experiment [3], 0.336 s⁻¹. Also, the figures for the kon in experiment [2] and in experiment [3] were 219000 M⁻¹ s⁻¹ and 398000 M⁻¹ s⁻¹, respectively. Besides, the t½ (in general, how long it takes for the measured level to halve) in experiment [2] was 13 min.

B3: H4H25018D (bispecific antibody, IgG4, V domains shown)
VH 1: B1 VH 1
VH 2: EVQLVESGGGLVQPGRSLRLSCVASGFTFADYAMHWVRQAPGKGLEWVSGISWNSGNIDYADSVKGRFTISRDNAKNSLYLQMNSLRTEDTALYYCAKVRIVVAGYYYYYYGMDVWGQGTTVTVSS
VL: not shown
notes: as for B1
In the case of B3, the koff in experiment [1] is 0.00171 s⁻¹; in experiment [2] it was 0.000895 s⁻¹; in experiment [8], 0.0015 s⁻¹; in experiment [3], 0.00941 s⁻¹. Besides, the kon is 110000 M⁻¹ s⁻¹ in experiment [1], 213000 M⁻¹ s⁻¹ in experiment [2], 90300 M⁻¹ s⁻¹ in experiment [8] and 65000 M⁻¹ s⁻¹ in experiment [3]. The “Bispecific antibody signal (Fold over blank)” value in experiment [4] amounted to 14 fold over blank; in experiment [5], 5 fold over blank; in experiment [6], 14 fold over blank; in experiment [7], 5 fold over blank. In experiment [2], this molecule yielded a t½ of 13 min.

B4: H4H25019D (bispecific antibody, IgG4, V domains shown)
VH 1: QVQLVQSGPEVKKPGASVKVSCKASGYTFPNFGISWVRQAPGQGLEWMGWIAPYNVATNYAPKLQGRVTMTTDTSTSTAYMELRSLRSDDTAVYYCARWGAGYMGYYYYGMDVWGQGTTVTVSS
VH 2: B3 VH 2
VL: not shown
notes: as for B1
In the case of B4, in experiment [2], binding was put at a Kd of 5.15 nM.

B5: H4H25021D (bispecific antibody, IgG4, V domains shown)
VH 1: B4 VH 1
VH 2: B2 VH 2
VL: not shown
notes: as for B1
Turning to B5, in experiment [3], the koff was 0.28 s⁻¹ and the kon came out at 287000 M⁻¹ s⁻¹.

The values are drawn from patent publication US20210246224A1 (Regeneron, published 2021).
